This note sets out measurements from patent US6936585B2, “Corticotropin releasing factor 2 receptor agonists” (priority 2002, dated 2005).

One assay concerns the target T1, CRF2R (Homo sapiens, UniProt Q13324).
T1 sequence (Q13324 1-411): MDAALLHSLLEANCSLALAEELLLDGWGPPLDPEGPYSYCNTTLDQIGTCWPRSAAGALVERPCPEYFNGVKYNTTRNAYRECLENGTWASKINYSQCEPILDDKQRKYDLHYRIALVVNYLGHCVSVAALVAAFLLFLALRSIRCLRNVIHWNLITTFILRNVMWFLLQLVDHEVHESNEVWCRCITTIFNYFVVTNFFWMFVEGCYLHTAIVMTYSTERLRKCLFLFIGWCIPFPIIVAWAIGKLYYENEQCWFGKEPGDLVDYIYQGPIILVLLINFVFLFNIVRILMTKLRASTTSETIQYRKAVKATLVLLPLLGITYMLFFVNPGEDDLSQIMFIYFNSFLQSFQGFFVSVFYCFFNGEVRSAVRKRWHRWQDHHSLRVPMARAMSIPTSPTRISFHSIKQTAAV
Description: CRF2R agonist activation (EC50 / Emax), called comparative CRF binding. Type of assay: cell-based. As to conditions: for Emax: read-out: CRF2R Emax. The essentials:
(§1)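 Cells expressing full-length human CRF1R or CRF2R were exposed to peptide or vehicle control, and receptor activation was gauged as cAMP induction. cAMP was measured in cell lysates or via a cAMP-responsive element driving a reporter gene such as luciferase, CAT, GFP or alkaline phosphatase.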

Another assay deals with T2, CRF1R (Homo sapiens, UniProt P34998).
T2 sequence (P34998 24-415): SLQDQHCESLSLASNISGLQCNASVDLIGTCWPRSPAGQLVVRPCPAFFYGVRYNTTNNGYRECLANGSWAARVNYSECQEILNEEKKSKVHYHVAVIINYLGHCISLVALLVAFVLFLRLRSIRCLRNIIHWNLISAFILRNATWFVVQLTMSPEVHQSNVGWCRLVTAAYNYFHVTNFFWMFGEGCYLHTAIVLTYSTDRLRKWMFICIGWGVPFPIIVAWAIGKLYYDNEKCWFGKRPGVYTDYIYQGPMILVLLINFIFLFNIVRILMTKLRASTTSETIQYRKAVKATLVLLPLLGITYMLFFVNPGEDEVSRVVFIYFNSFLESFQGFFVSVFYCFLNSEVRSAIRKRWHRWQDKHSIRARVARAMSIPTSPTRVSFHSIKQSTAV
Nature of the assay: CRF1R agonist activation (EC50 / Emax), called comparative CRF binding. It counts as cell-based. Particulars: for EC50: CRF1R EC50; for Emax: read-out: CRF1R Emax. The essentials:
as §1

For `CC[C@H](C)[C@H](NC(=O)[C@@H](NC(=O)[C@H](CC(=O)O)NC(=O)[C@H](CC(C)C)NC(=O)[C@H](CC(C)C)NC(=O)[C@H](CC(C)C)NC(=O)[C@H](CCCNC(=N)N)NC(=O)[C@H](CC(N)=O)NC(=O)[C@H](CC(N)=O)NC(=O)[C@H](C)NC(=O)[C@H](C)NC(=O)[C@H](CCC(N)=O)NC(=O)[C@H](CCC(N)=O)NC(=O)[C@H](CCCCN)NC(=O)[C@H](CCC(=O)O)NC(=O)[C@H](CCCCN)NC(=O)[C@H](CCC(=O)O)NC(=O)[C@H](CCC(N)=O)NC(=O)[C@H](CCCCN)NC(=O)[C@H](CCC(=O)O)NC(=O)[C@@H](NC(=O)[C@H](CCC(=O)O)NC(=O)[C@@H](NC(=O)[C@H](CCSC)NC(=O)[C@H](CCCCN)NC(=O)[C@H](CCCNC(=N)N)NC(=O)[C@H](CC(C)C)NC(=O)[C@H](CC(C)C)NC(=O)[C@H](C)NC(=O)[C@@H](NC(=O)[C@@H]1CCCN1C(=O)[C@H](CC(C)C)NC(=O)[C@H](CC(=O)O)NC(=O)[C@@H](NC(=O)[C@H](CO)NC(=O)[C@@H](NC(=O)[C@@H]1CCCN1C(=O)[C@@H]1CCCN1C(=O)CNC(=O)[C@@H]1CCC(=O)N1)[C@@H](C)CC)[C@@H](C)CC)C(C)C)[C@@H](C)CC)[C@@H](C)CC)[C@@H](C)O)C(N)=O` [compound 305], at CRF2R, the EC50 was determined as 35.4 nM and the Emax worked out at 95.2%. Further, on CRF1R, the concentration for a half-maximal effect (EC50) was not below 1000 nM and the Emax came out at 59.5%.

For `CC[C@H](C)[C@H](NC(=O)[C@@H](NC(=O)[C@H](C)NC(=O)[C@H](CC(C)C)NC(=O)[C@H](CC(C)C)NC(=O)[C@H](CC(C)C)NC(=O)[C@H](C)NC(=O)[C@H](CC(N)=O)NC(=O)[C@H](CC(N)=O)NC(=O)[C@H](C)NC(=O)[C@H](C)NC(=O)[C@H](CCC(N)=O)NC(=O)[C@H](CCC(N)=O)NC(=O)[C@H](CCCCN)NC(=O)[C@H](CCC(=O)O)NC(=O)[C@H](CCCCN)NC(=O)[C@H](CCC(=O)O)NC(=O)[C@H](CCC(N)=O)NC(=O)[C@H](CCCCN)NC(=O)[C@H](CCC(=O)O)NC(=O)[C@@H](NC(=O)[C@H](CCC(=O)O)NC(=O)[C@@H](NC(=O)[C@H](CCSC)NC(=O)[C@H](CCCCN)NC(=O)[C@H](CCCNC(=N)N)NC(=O)[C@H](CC(C)C)NC(=O)[C@H](CC(C)C)NC(=O)[C@H](Cc1ccc(O)cc1)NC(=O)[C@H](CCC(N)=O)NC(=O)[C@@H]1CCCN1C(=O)[C@H](CC(C)C)NC(=O)[C@H](CC(=O)O)NC(=O)[C@@H](NC(=O)[C@H](CO)NC(=O)[C@@H](NC(=O)[C@@H]1CCCN1C(=O)[C@@H]1CCCN1C(=O)CNC(=O)[C@@H]1CCC(=O)N1)[C@@H](C)CC)[C@@H](C)CC)[C@@H](C)CC)[C@@H](C)CC)[C@@H](C)O)C(N)=O` [compound 227], at CRF2R, the EC50 amounted to 33.6 nM and the maximum response (Emax) worked out at 95%. Also, on CRF1R, a half-maximal effect (EC50) was put at 918 nM and the Emax turned out to be 18%.

`CC[C@H](C)[C@H](NC(=O)[C@H](CCC(=O)O)NC(=O)[C@@H](NC(=O)[C@@H](NC(=O)[C@H](CCCCN)NC(=O)[C@H](CCCNC(=N)N)NC(=O)[C@H](CC(C)C)NC(=O)[C@H](CC(C)C)NC(=O)[C@H](CCC(N)=O)NC(=O)[C@H](Cc1ccccc1)NC(=O)[C@@H]1CCCN1C(=O)[C@H](CC(C)C)NC(=O)[C@H](CC(=O)O)NC(=O)[C@@H](NC(=O)[C@H](CO)NC(=O)[C@@H](NC(=O)[C@@H]1CCCN1C(=O)[C@@H]1CCCN1C(=O)CNC(=O)[C@@H]1CCC(=O)N1)[C@@H](C)CC)[C@@H](C)CC)[C@@H](C)O)[C@@H](C)CC)C(=O)N[C@@H](CCC(=O)O)C(=O)N[C@@H](CCCCN)C(=O)N[C@@H](CCC(N)=O)C(=O)N[C@@H](CCC(=O)O)C(=O)N[C@@H](CCCCN)C(=O)N[C@@H](CCC(=O)O)C(=O)N[C@@H](CCCCN)C(=O)N[C@@H](CCC(N)=O)C(=O)N[C@@H](CCC(N)=O)C(=O)N[C@@H](C)C(=O)N[C@H](C(=O)N[C@H](C(=O)N[C@@H](CC(N)=O)C(=O)N[C@@H](C)C(=O)N[C@@H](CCCNC(=N)N)C(=O)N[C@@H](CC(C)C)C(=O)N[C@@H](CC(C)C)C(=O)N[C@@H](CC(=O)O)C(=O)N[C@@H](CCCNC(=N)N)C(=O)N[C@H](C(N)=O)C(C)C)[C@@H](C)O)[C@@H](C)O` [compound 321]: the Emax came to 86.8% on CRF2R and 33.8% on CRF1R.

As for `CC[C@H](C)[C@H](NC(=O)[C@@H](NC(=O)[C@H](CC(=O)O)NC(=O)[C@H](CC(C)C)NC(=O)[C@H](CC(C)C)NC(=O)[C@H](CC(C)C)NC(=O)[C@H](CCCNC(=N)N)NC(=O)[C@H](CC(N)=O)NC(=O)[C@H](CC(N)=O)NC(=O)[C@H](C)NC(=O)[C@H](C)NC(=O)[C@H](CCC(N)=O)NC(=O)[C@H](CCC(N)=O)NC(=O)[C@H](CCCCN)NC(=O)[C@H](CCC(=O)O)NC(=O)[C@H](CCCCN)NC(=O)[C@H](CCC(=O)O)NC(=O)[C@H](CCC(N)=O)NC(=O)[C@H](CCCCN)NC(=O)[C@H](CCC(=O)O)NC(=O)[C@@H](NC(=O)[C@H](CCC(=O)O)NC(=O)[C@@H](NC(=O)[C@H](CCSC)NC(=O)[C@H](CCCCN)NC(=O)[C@H](CCCNC(=N)N)NC(=O)[C@H](CC(C)C)NC(=O)[C@H](CC(C)C)NC(=O)[C@H](CO)NC(=O)[C@@H](NC(=O)[C@@H]1CCCN1C(=O)[C@H](CC(C)C)NC(=O)[C@H](CC(=O)O)NC(=O)[C@@H](NC(=O)[C@H](CO)NC(=O)[C@@H](NC(=O)[C@@H]1CCCN1C(=O)[C@@H]1CCCN1C(=O)CNC(=O)[C@@H]1CCC(=O)N1)[C@@H](C)CC)[C@@H](C)CC)[C@@H](C)O)[C@@H](C)CC)[C@@H](C)CC)[C@@H](C)O)C(N)=O` [compound 43], the Emax on CRF2R came out at 67%; at CRF1R, 10%.
